According to patent US8124598B2, “7-keto DHEA for psychiatric use” (priority 2006, dated 2012):

Key:
[1] = system: patients with treatment-resistant PTSD, panic disorder, anxiety, depression and other conditions; test: Eight case reports: 7-keto DHEA in treatment-resistant patients (Example 3); type: in vivo, human; conditions: Patient 8, chemobrain and CFS/Fibromyalgia after breast cancer treatment; 50 mg/day
Text: 7-Keto DHEA for Healing Treatment-Resistant Posttraumatic Stress Disorder, Panic Disorder, Anxiety, Depression and Other Conditions in Male and Female Patients

healthy male volunteers = conditions: normal healthy men, doses up to 200 mg/d for 4 weeks; cited from earlier work

SMILES: CC(=O)OC1CC[C@@]2(C)C(=CC(=O)[C@@H]3[C@@H]2CC[C@]2(C)C(=O)CC[C@@H]32)C1 (some centres unmarked) [7-keto DHEA, 3-acetyl-7-oxo-dehydroepiandrosterone]
- clinical response [1]: significant improvement
- safety and tolerability (healthy male volunteers): safe and well tolerated
